Drawing on patent EP0123485A1, “Colon-specific prodrug, the preparation and uses thereof” (priority 1983, dated 1984), this text covers logD for two molecules.

A short description of the series: physchem. It counts as physicochemical.

Like-named read-outs stand apart in the source and are kept apart here.

Molecule `CC1CC2C3CCC4=CC(=O)C=CC4(C)C3(F)C(O)CC2(C)C1(O)C(=O)COC1OC(CO)C(O)C(O)C1O` [Compound 1, 9 alpha-Fluoro-11 beta, 17 alpha-dihydroxy-16 alpha-methyl-3, 20-dioxopregna-l, 4-dien-21-yl beta-D-glucopyranoside] came in with a logD at 0.5 h (0.01 m phosphate buffer, pH 7, Log P) of 0.59. For `CC1CC2C3CCC4=CC(=O)C=CC4(C)C3(F)C(O)CC2(C)C1(O)C(=O)COC1OC(CO)C(O)C(O)C1O` [Compound 9, 9 alpha-Fluoro-11 beta, 17 alpha-dihydroxy-16 alpha-methyl-3, 20-dioxopregna-1,4-dien-21-yl beta-D-galactopyranoside], under “n-octanol / 0.01 M phosphate buffer pH 7.0, 37 C, agitated 30 min, read-out: Log P”, the logD at 0.5 h came out at 0.49.
